Experiment [1] concerns the target Opioid receptors; delta & kappa (Homo sapiens) (UniProt P41145+P41143). Description: Selectivity was evaluated as ratio of Ki of delta receptor by displacement of [3H]diprenorphine to that of kappa receptor. In general terms: Loss of bound radioactivity is the signal in a displacement assay; it reports binding, not function.
Experiment [2] deals with Opioid receptors; mu & kappa (Homo sapiens) (UniProt P41145+P35372). Nature of the experiment: Selectivity was evaluated as ratio of Ki of mu receptor by displacement of [3H]diprenorphine to that of kappa receptor.
Experiment [3] in a line: Peripheral restriction index was determined.

Sequences of proteins named here, by UniProt entry; tags and fusion partners are left off. A change or cut given only in a name is not applied to a line headed by its entry.
UniProt P41145: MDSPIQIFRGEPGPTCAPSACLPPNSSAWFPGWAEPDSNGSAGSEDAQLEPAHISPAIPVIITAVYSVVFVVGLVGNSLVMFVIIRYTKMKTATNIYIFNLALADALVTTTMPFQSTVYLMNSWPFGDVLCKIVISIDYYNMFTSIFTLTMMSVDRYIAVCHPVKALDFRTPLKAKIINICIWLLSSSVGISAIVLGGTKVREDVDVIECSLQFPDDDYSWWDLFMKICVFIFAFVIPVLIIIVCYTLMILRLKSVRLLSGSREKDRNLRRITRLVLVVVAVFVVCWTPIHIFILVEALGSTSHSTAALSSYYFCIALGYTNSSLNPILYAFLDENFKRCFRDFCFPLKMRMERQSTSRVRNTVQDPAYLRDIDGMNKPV
UniProt P41143, whole entry, looked up: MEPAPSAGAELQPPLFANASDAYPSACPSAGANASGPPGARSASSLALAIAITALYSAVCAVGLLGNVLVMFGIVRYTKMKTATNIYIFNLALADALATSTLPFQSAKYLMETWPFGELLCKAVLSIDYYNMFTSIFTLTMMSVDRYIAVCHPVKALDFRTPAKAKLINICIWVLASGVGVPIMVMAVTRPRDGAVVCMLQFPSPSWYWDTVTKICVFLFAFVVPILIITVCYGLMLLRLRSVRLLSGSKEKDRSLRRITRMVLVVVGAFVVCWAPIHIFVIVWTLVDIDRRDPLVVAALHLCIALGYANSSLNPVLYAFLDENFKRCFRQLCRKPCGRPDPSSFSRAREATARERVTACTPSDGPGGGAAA
UniProt P35372, whole entry, looked up: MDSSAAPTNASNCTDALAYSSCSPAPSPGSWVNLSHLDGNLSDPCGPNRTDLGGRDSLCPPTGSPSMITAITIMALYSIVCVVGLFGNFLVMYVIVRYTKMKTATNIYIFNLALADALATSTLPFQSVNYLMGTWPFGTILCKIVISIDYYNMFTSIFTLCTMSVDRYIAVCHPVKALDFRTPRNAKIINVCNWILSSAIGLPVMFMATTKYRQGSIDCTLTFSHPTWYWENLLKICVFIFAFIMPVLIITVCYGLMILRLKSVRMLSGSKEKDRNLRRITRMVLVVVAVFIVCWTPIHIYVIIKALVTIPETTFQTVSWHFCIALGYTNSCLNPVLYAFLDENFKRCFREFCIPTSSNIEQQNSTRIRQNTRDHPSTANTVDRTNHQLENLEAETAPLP

Some results are limits rather than exact numbers.

As to `CN(C(=O)Cc1ccc([N+](=O)[O-])cc1)[C@H](CN1CCCC1)c1ccccc1`, the Selectivity in experiment [1] is 410; in experiment [2], 52.
For `CN(C(=O)Cc1cccc(C(F)(F)F)c1)[C@H](CN1CCCC1)c1ccccc1`, the Peripheral restriction index in experiment [3] stood at 9.
In experiment [3], `CN(C(=O)Cc1ccccc1N)[C@H](CN1CCCC1)c1ccccc1` displayed a Peripheral restriction index of 6.
Take `CN(C(=O)Cc1cccc([N+](=O)[O-])c1)[C@H](CN1CCCC1)c1ccccc1`: the Selectivity in experiment [1] and in experiment [2] was above 1000 in each case.
For the compound `CN(C(=O)Cc1ccccc1[N+](=O)[O-])[C@H](CN1CCCC1)c1ccccc1`, the Selectivity in experiment [1] and in experiment [2] was above 1000 in each case.
`CN(C(=O)Cc1ccc(Cl)c(Cl)c1[N+](=O)[O-])[C@H](CN1CCCC1)c1ccccc1` yielded a Peripheral restriction index in experiment [3] of 4.
Turning to `CN(C(=O)Cc1ccc(C(F)(F)F)cc1)[C@H](CN1CCCC1)c1ccccc1`, the figures for the Selectivity in experiment [1] and in experiment [2] were above 1000 and above 800, respectively. This compound also registered a Peripheral restriction index in experiment [3] of 13.
On to `CN(C(=O)Cc1ccc(Cl)c(Cl)c1)[C@H](CN1CCCC1)c1ccccc1` [ICI-199,441], for which the Peripheral restriction index in experiment [3] was 3.
